Test results published in patent US11447470B2, “Pyrimidinone-containing compound, preparation method thereof, pharmaceutical composition and application thereof” (YUNNAN UNIVERSITY, priority 2018, dated 2022).

system: not listed separately; assay: Cytotoxicity experiment (MTT method) on C8166 cells; format: cell-based; conditions: human, three days
Description: (§1) C8166 cells infected with HIV-1 were used for determining the anti-HIV biological activity at the cellular level. The specific method was described below.
(§2) Cytotoxicity experiment: The toxicity of the compounds on C8166 cells was determined by MTT method. In 96-well cell culture plates, the compounds were subjected to 5-fold serial dilution and 100 μL of C8166 cell suspension (4×10^5/mL) was added into each well. Triplicate wells were set for each concentration. […] The cells were incubated at 37° C. in a 5% CO2 incubator for three days, followed by the addition of MTT solution into each well, and then the cells were incubated at 37° C. for 4 hours. 10% SDS-50% DMF was added into each well and the cells were incubated at 37° C. in a 5% CO2 incubator overnight. After mixing evenly, the OD values were measured by BIO-TEK ELx800 ELISA instrument (determination wavelength: 570 nm; reference wavelength: 630 nm).

| Structure (SMILES) | CC50 at 3 days |
| --- | --- |
| O=c1cc(CC2CCCCC2)nc(SCc2cc(-c3ccccc3)[nH]n2)[nH]1 [Compound I-44] | 79.5 µM |

system: C8166 cells; assay: as above; format: cell-based; conditions: three days
Description: as §1, §2

| Structure (SMILES) | CC50 |
| --- | --- |
| CCc1c(CC2CCCCC2)nc(SCc2n[nH]c(-c3ccc(F)cc3)c2Cl)[nH]c1=O [Compound I-09] | 64.9 µM |
| CCc1c(CC2CCCCC2)nc(SCc2cc(-c3ccccc3)[nH]n2)[nH]c1=O [Compound I-02] | 84.5 µM |
| Cc1c(CC2CCCCC2)nc(SCc2cc(-c3ccc(F)cc3)[nH]n2)[nH]c1=O [Compound I-42] | 42.2 µM |
| CCc1c(CC2CCCCC2)nc(SCc2cc(-c3ccc(F)cc3)[nH]n2)[nH]c1=O [Compound I-08] | 74.9 µM |
| CCc1c(CC2CCCCC2)nc(SCc2cc(C3CC3)[nH]n2)[nH]c1=O [Compound I-33] | 47.2 µM |
| CCc1c(CC2CCCCC2)nc(SCc2n[nH]c(-c3cccc(C(F)(F)F)c3)c2Cl)[nH]c1=O [Compound I-27] | 55.1 µM |
| CCc1c(CC2CCCCC2)nc(SCc2n[nH]c(-c3ccc(OC)c(Cl)c3)c2Cl)[nH]c1=O [Compound I-11] | 49.8 µM |
| CCc1c(CC2CCCCC2)nc(SCc2cc(-c3cccc(Br)c3)[nH]n2)[nH]c1=O [Compound I-03] | 76.3 µM |
| CCc1c(CC2CCCCC2)nc(SCc2n[nH]c(-c3ccc(F)c(F)c3)c2Cl)[nH]c1=O [Compound I-19] | 115 µM |
| CCc1c(CC2CCCCC2)nc(SCc2cc(-c3ccc(C)cc3C)[nH]n2)[nH]c1=O [Compound I-29] | 87.4 µM |
| CCc1c(CC2CCCCC2)nc(SCc2cc(-c3ccc(F)cc3F)[nH]n2)[nH]c1=O [Compound I-20] | 59.7 µM |
| CCc1c(CC2CCCCC2)nc(SCc2cc(-c3ccc(Cl)cc3)[nH]n2)[nH]c1=O [Compound I-07] | 83.9 µM |
| COc1ccc(-c2cc(CSc3nc(CC4CCCCC4)c(C)c(=O)[nH]3)n[nH]2)cc1 [Compound I-43] | 66.9 µM |
| CCc1c(CC2CCCCC2)nc(SCc2cc[nH]n2)[nH]c1=O [Compound I-31] | 75 µM |
| CCc1c(CC2CCCCC2)nc(SCc2cc(-c3ccccn3)[nH]n2)[nH]c1=O [Compound I-34] | 79.4 µM |
| O=c1cc(CC2CCCCC2)nc(SCc2cc(-c3ccc(F)cc3)[nH]n2)[nH]1 [Compound I-45] | 61.6 µM |
| CCc1c(CC2CCCCC2)nc(SCc2cc(-c3ccc(F)c(F)c3)[nH]n2)[nH]c1=O [Compound I-18] | 86.4 µM |
| CCc1c(CC2CCCCC2)nc(SCc2n[nH]c(-c3cccc(Cl)c3)c2Cl)[nH]c1=O [Compound I-06] | 66.1 µM |
| CCc1c(CC2CCCCC2)nc(SCc2cc(-c3cccc(F)c3)[nH]n2)[nH]c1=O [Compound I-14] | 72 µM |
| CCc1c(CC2CCCCC2)nc(SCc2n[nH]c(-c3cccc(Br)c3)c2Cl)[nH]c1=O [Compound I-04] | 58.1 µM |
| CCc1c(CC2CCCCC2)nc(SCc2cc(-c3ccc(Cl)c(Cl)c3)[nH]n2)[nH]c1=O [Compound I-12] | 75.4 µM |
| CCc1c(CC2CCCCC2)nc(SCc2cc(C(C)(C)C)[nH]n2)[nH]c1=O [Compound I-30] | 67.9 µM |
| CCc1c(CC2CCCCC2)nc(SCc2cc(C)[nH]n2)[nH]c1=O [Compound I-32] | 45.2 µM |
| CCc1c(CC2CCCCC2)nc(SCc2n[nH]c(-c3cccc(C)c3)c2Cl)[nH]c1=O [Compound I-24] | 77.1 µM |
| CCc1c(CC2CCCCC2)nc(SCc2cc(-c3cccc(C(F)(F)F)c3)[nH]n2)[nH]c1=O [Compound I-26] | 34.4 µM |
| CCc1c(CC2CCCCC2)nc(SCc2cc(-c3cccc(Cl)c3)[nH]n2)[nH]c1=O [Compound I-05] | 81 µM |
| COc1ccc(-c2cc(CSc3nc(CC4CCCCC4)cc(=O)[nH]3)n[nH]2)cc1 [Compound I-46] | 56.1 µM |
